According to patent publication US6126918A, “Screening assays to identify therapeutic agents for amyloidosis” (Imperial College Innovations Limited, priority 1993, dated 2000):

Tested on: amyloid fibrils of AA, AL and apoAI type
Test: Proteinase digestion of ex vivo amyloid fibrils (AA, AL, apoAI) in vitro
Format: biochemical, human
Conditions: protein added to incubation mixtures, 37° C.
Method: Digestion was monitored by analysis of the incubation mixtures in reduced SDS-PAGE and also by release of trichloroacetic acid (TCA)-soluble radioactivity when the fibrils had been oxidatively labelled with ^125 I. Incubation of such labelled fibrils with cultured monocyte-derived macrophages also led to digestion.
This inhibition was dose and time-dependent and was not observed when other proteins, C-reactive protein (CRP) and human serum albumin, were added as controls in place of SAP.

With “albumin: human serum albumin, control protein” the “Effect on fibril digestion by proteinases” value was “both it and the fibrils were completely digested”.
